The test system of this data set is mice. The conditions noted are these: oral 200 mg / kg, seven consecutive days.

In the case of `CCC(=O)N1CCCN(C(=O)C2CCCN(Cc3ccc(NC(=O)N[C@@]45C[C@@H]6C[C@@](C)(C[C@@](C)(C6)C4)C5)c(F)c3)C2)CC1` (stereo partly drawn) [G1, 1-((1r,3R,5S,7r)-3,5-Dimethyladamantan-1-yl)-3-(2-fluoro-4-((3-(4-propionyl-1,4-diazepane-1-carbonyl)piperidin-1-yl)methyl)phenyl)urea], the “adverse events, survival status and body weight” value is “no adverse events were observed”.

Values taken from publication PMC9974930 (Journal of medicinal chemistry, 2023).
